# Measurements as given in patent publication US8974768B2, “Azo compounds reducing formation and toxicity of amyloid beta aggregation intermediates” (Max-Delbrueck-Centrum fuer Molekulare Medizin, priority 2010, dated 2015).
# Tested on: secreted Aβ monomers and dimers
row,Structure (SMILES),Dimer reduction
1,"O=[N+]([O-])c1ccc(N=Nc2ccc(Nc3ccccc3)cc2)cc1 [Compound 2, 4-((4-nitrophenyl)diazenyl)-N-phenylaniline]",++
2,"CN(C)c1ccc(N=Nc2ccc(N=C=S)cc2)cc1 [Compound 10, 4-((4-isothiocyanatophenyl)diazenyl)-N,N-dimethylaniline]",++
3,"CN(C)c1ccc(N=Nc2ccccc2)cc1 [Compound 21, N,N-dimethyl-4-(phenyldiazenyl)aniline]",++
4,"Cc1cc(N=Nc2ccccc2C)ccc1N [Compound 26, 2-methyl-4-(o-tolyldiazenyl)aniline]",toxic
5,"c1ccc(N=Nc2ccccc2)cc1 [compound 33, 1,2-diphenyldiazene, reference compound]",−
